{"sequences": {"note": "The chains behind the UniProt entries cited, without tags or fusion partners. Residues count along the entry.", "UniProt Q96RI0, 18-385 limits assumed": "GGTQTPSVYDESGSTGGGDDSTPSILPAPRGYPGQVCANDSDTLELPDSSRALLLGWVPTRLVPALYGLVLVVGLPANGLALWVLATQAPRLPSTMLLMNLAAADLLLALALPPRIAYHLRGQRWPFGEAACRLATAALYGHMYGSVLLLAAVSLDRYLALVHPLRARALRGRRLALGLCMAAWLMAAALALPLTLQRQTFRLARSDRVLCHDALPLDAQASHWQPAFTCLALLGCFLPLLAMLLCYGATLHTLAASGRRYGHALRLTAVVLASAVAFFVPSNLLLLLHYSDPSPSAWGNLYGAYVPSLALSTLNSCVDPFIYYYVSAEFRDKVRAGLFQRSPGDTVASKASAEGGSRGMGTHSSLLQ"}, "source": "patent US9862730B2", "about": "“Imidazothiadiazole derivatives as protease activated receptor 4 (PAR4) inhibitors for treating platelet aggregation” (BRISTOL-MYERS SQUIBB COMPANY, priority 2012, dated 2018)", "molecular_target": "PAR4 (Homo sapiens (Human), UniProt Q96RI0)", "experiment": "FLIPR assay in PAR4-expressing HEK293 cells (PAR4 antagonist activity, calcium mobilization)", "type": "cell-based", "details": "read-out: PAR4 FLIPR Assay (IC50), FLIPR assay as described in Example A"}
{"smiles": "CCc1nn2cc(-c3cc4c(OC)cccc4o3)nc2s1", "values": [{"measurement": "IC50", "result": 91.1, "unit": "nM"}]}
